Structures are written as SMILES. “Also recorded” adds a separate entry of the source.

The format of this series is in vivo, human. Particulars: once-daily verinurad 10 mg or 2.5 mg with febuxostat 40 mg or 80 mg.

For the compound `Cc1nc(-c2ccc(OCC(C)C)c(C#N)c2)sc1C(=O)O` [febuxostat, Febuxostat, reference compound], the “Effect of verinurad on febuxostat PK / systemic exposure” value was “no effect; also recorded: unaffected; also recorded: did not affect”.

The values are drawn from article PMC6586034 (Clinical Pharmacology in Drug Development, 2018).
